# Measured values taken from PubChem BioAssay AID743287 (Broad Institute, 2014).
# The entries are a selection whose mix differs from that of the whole data set. Calls of active or inactive are those of the source.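 How the source made its calls: active means lowest replicate activation of at least 40%, so every replicate reaches that level; inactive means the rest.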
# Assay: GLuc luminescence reporter in INS-1E cells, primary screen for activators of glucose-dependent secretion of insulin (AID 743287);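 further: 0% = median of neutral control wells and 100% = median of IBMX positive control wells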
# Details: INS-1E GLuc reporter insulin secretion, 2-3 h, at 16.6 µM, stronger effect = higher value
row,SMILES,activation
1,CN(C)C1(CNC(=O)c2ccc(S(C)(=O)=O)cc2)CCCCC1,inactive: 3.44%
2,O=C(/C=C/c1ccccc1)OC1CN2CCC1CC2 (stereo not given),inactive: -8.75%
3,CCCC1OP(=O)(Nc2ccccc2)OCC1CC (stereo not given),inactive: -8.34%
4,CC1CCC(C(C)C)C(OP(=O)(Nc2ccccn2)c2ccccc2)C1 (stereo not given),inactive: -41.9%
5,Cc1ccc(C(=O)OC2CN3CCC2CC3)cc1 (stereo not given),inactive: 12.2%
6,Nc1cccc([As](=O)(O)c2ccccc2)c1,inactive: 13%
7,NS(=O)(=O)c1cccc(NC(=O)COC(=O)C(O)(c2ccccc2)c2ccccc2)c1,inactive: -9.53%
8,O=[As](O)(c1cccs1)c1cccs1,inactive: -5.19%
9,Cc1ccc(S(=O)(=O)N(CCCN)CCCc2c(C)nc(N)[nH]c2=O)cc1,inactive: 0.178%
10,O=P1(N(CCCl)CCCl)NCCC(C(F)(F)F)O1 (stereo not given),inactive: 4.59%
11,CCC1=CC2Cc3nc4ccc(Cl)cc4c(N)c3C(C1)C2 (stereo not given),inactive: -11.2%
12,CCOP(=O)(NC(=NC(C)c1ccccc1)NC(C)c1ccccc1)OCC (stereo not given),inactive: -9.51%
13,CCOP(=O)(Nc1ccc(C)cn1)OCC,inactive: 5.64%
14,CC(C)/C=N\N=C(\N)N[N+](=O)[O-],inactive: 1.35%
15,CN(C(=O)Cc1ccc(Cl)c(Cl)c1)C1CCCC[C@@H]1N1CCCC1 (stereo not given in full),inactive: 1.24%
16,COc1ccccc1CNC(=O)COC(=O)C(O)(c1ccccc1)c1ccccc1,inactive: 2.4%
17,O=[As](O)(c1cccc(O)c1)c1cccc(O)c1,inactive: 0.496%
18,Cc1cccc(OCC(=O)OC2CN3CCC2CC3)c1 (stereo not given),inactive: 0.794%
19,O=C(OC1CN2CCC1CC2)c1ccc(Cl)cc1 (stereo not given),inactive: 1.22%
20,COc1cc(C(=O)NCC2(N3CCOCC3)CCCCC2)cc(Cl)c1OC(C)C,inactive: -9.86%
21,O=[As](O)(O)c1cccnc1,inactive: 17.9%
22,CS(=O)(=O)c1ccc(Cl)c(NC(=O)COC(=O)C(O)(c2ccccc2)c2ccccc2)c1,inactive: -19.2%
23,COc1cc(C2NCCC3(OCCO3)C2(C)C)cc(OC)c1OC (stereo not given),inactive: 27.1%
24,CCOP(=O)(Nc1cccc2ccccc12)OCC,inactive: 12%
25,Cc1ccc(NCCc2c([N+](=O)[O-])cc([N+](=O)[O-])cc2[N+](=O)[O-])cc1,inactive: -3.4%

row,SMILES,activation
1,Nc1cccc2c([As](=O)(O)O)cccc12,inactive: 9.89%
2,CCCOP(=S)(Nc1nc(N)cc(=O)[nH]1)OCCC,inactive: -5.52%
3,Nc1ccccc1[As](=O)(O)c1ccccc1,inactive: 14.9%
4,O=C(O)COc1ccc([As](=O)(O)O)cc1[N+](=O)[O-],inactive: -6.13%
5,CCOP1(=S)c2c(C)nn(CCC#N)c2N=C(c2ccccc2F)N1C (stereo not given),inactive: 20.7%
6,O=P(Nc1nccs1)(Oc1ccccc1)Oc1ccccc1,inactive: -1.37%
7,N#CCCN(C(=O)COC(=O)C(O)(c1ccccc1)c1ccccc1)c1ccc(F)cc1,inactive: -13.2%
8,CCOP1(=S)c2c(C)nn(CCC#N)c2N=C(c2ccc(F)cc2)N1C (stereo not given),inactive: -9.08%
9,CN(C)C(=O)c1cc([N+](=O)[O-])cc2c1-c1c(cc([N+](=O)[O-])cc1[N+](=O)[O-])C2=O,inactive: -20.3%
10,CN(C(=O)Cc1ccc(Cl)c(Cl)c1)[C@H]1CC[C@@]2(CCCO2)C[C@@H]1N1CCCC1,inactive: 0.015%
11,NC(=O)Nc1ccc([As](=O)(O)O)cc1,inactive: 10.7%
12,[N-]=[N+]=NC1CCCCC1NC(=O)c1cc([N+](=O)[O-])cc([N+](=O)[O-])c1 (stereo not given),inactive: -1.45%
13,Cc1ccc(OP(=O)(Nc2ccc([N+](=O)[O-])cn2)Oc2ccc(C)cc2)cc1,inactive: 4.31%
14,Cc1ccc2nc3c(c(C)c2c1)CC(C(Cl)Cl)S3 (stereo not given),inactive: 1.25%
15,O=[As](O)(c1ccc(O)cc1)c1ccccc1O,inactive: 5.11%
16,C[As](=O)(O)c1cccc(C(=O)O)c1,inactive: -3.8%
17,COc1cc(C(=O)NCC2(N3CCOCC3)CCCCC2)ccc1OCC(C)C,inactive: 7.19%
18,CC(C)NC(=O)NP(=O)(Oc1ccccc1)Oc1ccccc1,inactive: -13.6%
19,CC(C)c1ccc(OP(=O)(Nc2ccccn2)Oc2ccccc2F)cc1 (stereo not given),inactive: -7.28%
20,COC(=O)C1(C)COP(=O)(N2CCCCCC2)OC1 (stereo not given),inactive: 13.9%
21,O=P1(N(CCCl)CCCl)OCCCN1CCCl (stereo not given),inactive: 17.3%
22,O=P1(N(CCCl)CCCl)Nc2ccccc2N1,inactive: 20.6%
23,COc1ccc2nc(NP(=O)(c3ccccc3)c3ccccc3)sc2c1,inactive: 19.1%
24,COc1cc(I)ccc1[As](=O)(O)O,inactive: 18.6%
25,Cc1c2c(nc3ccccc13)SC(C(Cl)Cl)C2 (stereo not given),inactive: 7.27%

row,SMILES,activation
1,Cc1cc(=O)[nH]c(N[N+](=O)[O-])n1,inactive: 1.97%
2,O=[N+]([O-])c1cc(Oc2ccc([N+](=O)[O-])cc2C(F)(F)F)cc([N+](=O)[O-])c1,inactive: 1.95%
3,COc1ccc(N/C(=N/P(=O)(N2CCOCC2)N2CCOCC2)N2CCOCC2)cc1,inactive: 7.16%
4,O=C(O)C(=O)c1ccc(N(CCCl)CCCl)cc1,inactive: 10.6%
5,O=C(Nc1ccncc1[N+](=O)[O-])c1ccc([N+](=O)[O-])cc1[N+](=O)[O-],inactive: -22.8%
6,COP1(=S)c2c(C)nn(CCC#N)c2N=C(c2ccc(F)cc2)N1C (stereo not given),inactive: -3.6%
7,COC(=O)C1(C)COP(=O)(N2CCCC2)OC1 (stereo not given),inactive: 5.6%
8,O=C(OC1CN2CCC1CC2)c1cccc([N+](=O)[O-])c1 (stereo not given),inactive: 7.29%
9,CCOC(=O)c1ccc(NC(=O)C(C)(CCl)SC)cc1 (stereo not given),inactive: -5.36%
10,CCCCOc1ccc(C(=O)NCC2(N3CCCCC3)CCCCC2)cc1OC,inactive: -6.05%
11,Cc1cc(SC(NC(=O)c2ccccc2)C(Cl)(Cl)Cl)nc(C(C)C)n1 (stereo not given),inactive: -13.9%
12,CCOC(=O)Nc1ccc([As](=O)(O)O)c(O)c1,inactive: -8.7%
13,O=P(Nc1ccccn1)(c1cccc2ccccc12)c1cccc2ccccc12,inactive: 3.77%
14,Cc1cc(SC(NC=O)C(Cl)(Cl)Cl)ncn1 (stereo not given),inactive: -5.37%
15,O=[N+]([O-])c1ccc(Nc2ccc(Oc3ccc([N+](=O)[O-])cc3[N+](=O)[O-])cc2)c([N+](=O)[O-])c1,inactive: -3.87%
16,CCOC(=O)Nc1cccc([As](=O)(O)O)c1,inactive: -25.2%
17,O=P1(N(CCCl)CCCl)OCCCS1 (stereo not given),inactive: 7.54%
18,O=C(O)CNc1ccc([As](=O)(O)O)cc1,inactive: 8.73%
19,O=[N+]([O-])c1cccc(NC2=NCC(CBr)S2)c1 (stereo not given),inactive: -0.594%
20,COC(=O)C1(C)COP(=O)(Nc2ccccc2)OC1 (stereo not given),inactive: -1.82%
21,O=[N+]([O-])c1ncn(CCn2ncnc2[N+](=O)[O-])n1,inactive: 17.1%
22,CC(C)(C)C(=O)NC(Sc1ccncn1)C(Cl)(Cl)Cl (stereo not given),inactive: 6.44%
23,Cc1ccc(NP(=O)(Oc2ccccc2)Oc2ccccc2)nc1,inactive: 12.1%
24,O=[N+]([O-])c1cc([N+](=O)[O-])c(CCNc2ccccc2)c([N+](=O)[O-])c1,inactive: 5.26%
25,COc1ccc(C2=NCC(CBr)S2)cc1 (stereo not given),inactive: -1.14%

row,SMILES,activation
1,c1cc(-c2nn[nH]n2)ccc1-c1nn[nH]n1,inactive: 7.95%
2,CC1CCN(C(=O)Oc2c(Cl)cc(Cl)c3cccnc23)CC1,inactive: -20.9%
3,CC(C)=N/N=C(\N)N[N+](=O)[O-],inactive: 5.56%
4,CC(C)c1nc(Nc2ccccc2)n(P(=O)(N(C)C)N(C)C)n1,inactive: 3.99%
5,CN(C)C(=O)OCCc1n(C)cc[n+]1C,inactive: 17%
6,CCN(/C(=N/P(=O)(N1CCOCC1)N1CCOCC1)N1CCOCC1)c1ccc(OC)cc1,inactive: 6.65%
7,Nc1ccc([As](=O)(O)c2ccc(N)cc2)cc1,inactive: 15.6%
8,C[N+]1=C2C=CC=CC=C2SC12C([N+](=O)[O-])=CC([N+](=O)[O-])=C[C-]2[N+](=O)[O-] (stereo not given),inactive: -8.41%
9,Clc1ccc(Cl)c(NC2=NCC(CBr)S2)c1 (stereo not given),inactive: 3.17%
10,COc1ccccc1OP(=O)(Nc1ccc(C)cn1)Oc1ccccc1OC,inactive: -0.408%
11,Cc1ccc(OP(=O)(Nc2nccs2)Oc2ccc(C)cc2)cc1,inactive: -5.84%
12,CN(C(=O)Cc1ccc(Cl)c(Cl)c1)[C@H]1CCCC[C@H]1N1CCCC1,inactive: -3.38%
13,NC(=O)c1cc([N+](=O)[O-])cc([N+](=O)[O-])c1N,inactive: 11.5%
14,Oc1ccccc1CNc1ccccn1,inactive: -2.86%
15,O=C(NC(Sc1ccncn1)C(Cl)(Cl)Cl)c1ccccc1 (stereo not given),inactive: -11.9%
16,CC(C)CC(=O)NC(Sc1ccc(Cl)cc1)C(Cl)(Cl)Cl (stereo not given),inactive: -4.13%
17,Nc1cc(N)c2nonc2c1[N+](=O)[O-],inactive: 8.96%
18,CCn1c(=O)n(C2CCN(CC3CCCCCCC3)C[C@H]2CO)c2ccccc21 (stereo not given in full),inactive: -10.1%
19,Cc1cc(SC(NC(=O)c2ccc(F)cc2)C(Cl)(Cl)Cl)ncn1 (stereo not given),inactive: -9.85%
20,Cc1ccc(NP(=O)(Oc2ccccc2F)Oc2ccccc2F)nc1,inactive: 20.7%
21,CN(C)P(=O)(N(C)C)n1c(Nc2ccccc2)nnc1-c1ccccc1,inactive: 14.9%
22,O=P(Nc1nc2ccc(Cl)cc2s1)(c1ccccc1)c1ccccc1,inactive: 2.69%
23,O=C(O)c1ccccc1[As](=O)(O)O,inactive: 12%
24,CC(=O)Nc1ccc([As](=O)(O)O)cc1,inactive: -1.69%
25,Nc1cccc2ccc([As](=O)(O)O)cc12,inactive: 10.7%
